Measured values reported in patent US20160335412A1, “SYSTEMS AND METHODS FOR PREDICTING AND ADJUSTING THE DOSAGE OF MEDICINES IN INDIVIDUAL PATIENTS” (priority 2013, published 2016).

Settings: 20 mg/day oral; 70 kg, heavy smoker; hypothetical case ('Consider ...')

Cc1cc2c(s1)Nc1ccccc1N=C2N1CCN(C)CC1 [olanzapine]
sustained maximum plasma drug concentration: 65 ng/mL
